How the values were obtained:
Caco-2 monolayer [1] = settings: 5 days, cyclic mechanical strain (10% strain, 0.15 Hz) + 30 μL/hr flow
[2] = tested on: Caco-2 cell monolayer alone or with HMVE cell monolayer
Caco-2 monolayer [3] = settings: preliminary; 15% elongation, 30 μL/h, Rho123 100 μM
[4] = target: permeability glycoprotein (P-gp) in Caco-2 cells (Homo sapiens, UniProt P08183)

Protein sequences, listed by entry. Tags and fused reporters are not part of them.
UniProt P08183, whole entry: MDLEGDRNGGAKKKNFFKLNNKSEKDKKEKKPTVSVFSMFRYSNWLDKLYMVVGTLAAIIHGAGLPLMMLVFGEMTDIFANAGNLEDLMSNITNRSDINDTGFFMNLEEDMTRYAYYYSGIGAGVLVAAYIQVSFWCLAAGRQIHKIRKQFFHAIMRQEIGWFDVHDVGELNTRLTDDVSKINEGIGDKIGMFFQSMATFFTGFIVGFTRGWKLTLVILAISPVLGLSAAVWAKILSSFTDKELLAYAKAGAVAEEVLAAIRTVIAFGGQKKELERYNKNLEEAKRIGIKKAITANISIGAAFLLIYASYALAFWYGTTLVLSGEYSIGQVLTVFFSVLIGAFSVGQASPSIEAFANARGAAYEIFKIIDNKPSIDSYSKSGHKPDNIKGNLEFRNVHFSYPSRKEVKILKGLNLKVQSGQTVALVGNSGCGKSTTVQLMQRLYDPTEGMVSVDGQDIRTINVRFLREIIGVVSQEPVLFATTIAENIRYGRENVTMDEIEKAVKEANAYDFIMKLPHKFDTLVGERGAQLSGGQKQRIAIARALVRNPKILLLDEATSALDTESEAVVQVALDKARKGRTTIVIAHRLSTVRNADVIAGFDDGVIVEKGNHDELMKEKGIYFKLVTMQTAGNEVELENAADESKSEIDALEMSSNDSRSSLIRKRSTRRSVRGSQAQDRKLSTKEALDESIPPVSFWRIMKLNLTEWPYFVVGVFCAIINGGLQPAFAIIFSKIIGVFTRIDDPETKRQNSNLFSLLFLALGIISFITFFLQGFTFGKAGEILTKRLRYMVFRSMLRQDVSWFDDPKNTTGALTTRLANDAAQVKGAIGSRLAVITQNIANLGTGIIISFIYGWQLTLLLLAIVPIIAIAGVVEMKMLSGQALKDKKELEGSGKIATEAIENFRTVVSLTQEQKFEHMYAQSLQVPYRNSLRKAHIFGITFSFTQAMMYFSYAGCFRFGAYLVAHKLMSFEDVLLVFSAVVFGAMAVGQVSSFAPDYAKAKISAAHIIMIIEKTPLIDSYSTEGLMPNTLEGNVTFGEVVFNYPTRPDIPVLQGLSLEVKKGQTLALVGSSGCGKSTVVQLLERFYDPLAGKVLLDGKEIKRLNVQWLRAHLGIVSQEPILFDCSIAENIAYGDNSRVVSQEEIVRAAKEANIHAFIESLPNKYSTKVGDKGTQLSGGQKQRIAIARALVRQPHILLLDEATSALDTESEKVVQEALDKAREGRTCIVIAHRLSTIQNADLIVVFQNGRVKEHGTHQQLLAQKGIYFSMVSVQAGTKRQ

With “fluorescein isothiocyanate-labeled dextran [FD20]” the “increase in paracellular permeability” value (Caco-2 monolayer [1]) was over 4 fold and the “effect of mechanical strain on paracellular transport” value [2] was “increased”.

With Rhodamine 123 [Rho123] the “Papp in the presence of mechanical strain” value (Caco-2 monolayer [3]) was “enhanced” and the “Papp in BL>AP transport versus AP>BL transport (efflux via P-gp)” value [4] was “higher”.
